Experimental findings from patent publication US9908897B2, “Spirocyclic derivatives” (CHRONOS THERAPEUTICS LIMITED, priority 2014, dated 2018) are described below.

Amino acid sequences for entries named in this document (tags omitted).
UniProt Q01959, whole entry: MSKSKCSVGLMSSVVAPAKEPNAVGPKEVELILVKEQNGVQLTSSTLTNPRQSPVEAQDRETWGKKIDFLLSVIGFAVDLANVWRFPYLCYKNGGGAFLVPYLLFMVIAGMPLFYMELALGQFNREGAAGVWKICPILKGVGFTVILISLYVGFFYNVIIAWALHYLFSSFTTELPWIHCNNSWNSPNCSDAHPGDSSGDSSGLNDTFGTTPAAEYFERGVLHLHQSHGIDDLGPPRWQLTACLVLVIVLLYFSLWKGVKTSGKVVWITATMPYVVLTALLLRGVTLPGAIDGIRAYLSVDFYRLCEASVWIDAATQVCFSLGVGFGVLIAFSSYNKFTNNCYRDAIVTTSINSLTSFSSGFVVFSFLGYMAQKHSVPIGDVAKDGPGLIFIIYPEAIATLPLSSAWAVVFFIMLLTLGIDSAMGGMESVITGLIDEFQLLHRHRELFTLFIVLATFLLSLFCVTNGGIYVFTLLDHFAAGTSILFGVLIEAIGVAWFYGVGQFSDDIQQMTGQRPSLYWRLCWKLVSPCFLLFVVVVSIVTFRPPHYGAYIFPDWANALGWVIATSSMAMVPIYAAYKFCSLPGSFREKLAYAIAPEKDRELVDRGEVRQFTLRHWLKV

As usually defined, the IC50 is the point on the concentration scale where inhibition reaches its midpoint.

In the assay the target is human dopamine transporter (DAT) (Homo sapiens (Human), UniProt Q01959). The assay can be described thus: Scintillation Proximity Assay (SPA) competition binding, human DAT. The following applies: recombinant hDAT-CHO membranes, [3H]WIN-35,428. From the text:
Measure of Affinity to the Human Transporters DAT, NET and SERT
Affinity is expressed in terms of inhibition constant (Ki) of the compounds of the invention for DAT, NET and SERT, and it is typically calculated from the IC50 values obtained in competition experiments using Cheng and Prusoff equation (Cheng and Prusoff, Biochem. Pharmacol. 22:3099, 1973). In the context of the present invention pKi values (corresponding to the antilogarithm of Ki) are used instead of Ki; pKi are only estimated to be accurate to about 0.3 log unit.
Scintillation Proximity Assay (SPA) for Human DAT, NET and SERT Binding
Chinese Hamster Ovary (CHO) cells stably expressing either human DAT (hDAT-CHO) or human NET (hNET-CHO) or human SERT (hSERT-CHO) are used for the membrane preparations for radioligand binding assays using Scintillation proximity Assay (SPA) technique. Each cell line is cultured independently in F-12K Nutrient Mixture containing 10% of Fetal Bovine Serum (FBS) supplemented with 450 μg/ml G-418. When cells are at 70-80% of confluence 3 mM Na Butyrate was added to the cell culture medium. After 24 h of incubation, the culture medium was removed and the cells detached with Versene (DAT) or by scraping (NET and SERT). Cell suspension is centrifuged at 41,000 g for 10 minutes at 4° C. The resultant pellets are re-suspended in 15 volumes of Ice-cold buffer (20 mM HEPES, 145 mM NaCl, 5 mM KCl, pH7.3), homogenized using an Ultra Turrax homogeniser and centrifuged as before. The resultant membrane pellets are re-suspended in up to 15 volume of ice-cold buffer, incubated for 20 minutes at 37-C and centrifuged as before at 41,000 g. The final membrane pellets are re-suspended into 5-10 volumes of ice-cold buffer, dispensed into 0.5 ml aliquots and stored at −80° C. until use. Protein concentration for each preparation is determined using Bio-Rad Protein Assay kit.
The affinity of the compounds of the invention to the human DAT or NET or SERT transporters is assessed by using the [^3H]WIN-35,428 or [^3H]nisoxetine or [^3H]citalopram binding assays in recombinant human DAT, NET and SERT membranes with the SPA technology. The final assay volume is 50 μL in 384 well plates.
Briefly, 0.5 μL of test compound in neat DMSO or 0.5 μL of DMSO for total binding (TB) or 0.5 μL of indatraline 1 mM (10 μM final concentration) for non specific binding (NSB) are added to the assay plate. 50 μL of the SPA mixture is added to each well, containing: 30 μg/mL or 10 μg/mL or 25 μg/mL DAT, NET, SERT membranes, respectively; 5 nM [^3H]WIN-35,428 or 5 nM [^3H]nisoxetine or 1 nM [^3H]citalopram, for DAT, NET, SERT assay, respectively; 2.5 mg/mL or 1 mg/mL or 4 mg/mL WGA-PVT SPA beads (PerkinElmer RPNQ0001, for DAT, NET, SERT assay, respectively. All components are added to Assay Buffer (20 mM HEPES pH 7.4, 145 mM NaCl, 5 mM KCl, 0.01% Pluronic F-127). 0.02% BSA was used for DAT binding only. Plates are sealed with Topseal A and centrifuged 1 min, 800 rpm. Plates are loaded into a 1450 Microbeta TriLux (Perkin-Elmer) plate reader and the radioactivity counted after at least 4 hrs or overnight incubation at room temperature. Curve fitting and IC50 estimations are performed using a four parameter model in XLfit (IDBS, Guilford, UK) for Microdoft Excel (Microsoft, Redmond, Wash.).
A general note: Scintillation proximity formats need no separation of bound from free tracer.

Take `O[C@H]1CNCC[C@@]12CCN(c1nc(Oc3cccc(F)c3)cc(C(F)(F)F)n1)C2` (single isomer, unassigned) [Example 100, 2-[4-(3-fluorophenoxy)-6-(trifluoromethyl)pyrimidin-2-yl]-2,8-diazaspiro[4.5]decan-6-ol]: the IC50 was 11.2 nM.

`O[C@H]1CNCC[C@@]12CCN(c1nc(Oc3cccc(F)c3)cc(C(F)(F)F)n1)C2` (single isomer, unassigned) [Example 101, 2-[4-(3-fluorophenoxy)-6-(trifluoromethyl)pyrimidin-2-yl]-2,8-diazaspiro[4.5]decan-6-ol]: the IC50 is 6.92 nM.

With `O[C@H]1CNCC[C@@]12CCN(c1nc(Oc3cccc(F)c3)cc(C(F)(F)F)n1)C2` (single isomer, unassigned) [Example 99, 2-[4-(3-fluorophenoxy)-6-(trifluoromethyl)pyrimidin-2-yl]-2,8-diazaspiro[4.5]decan-6-ol], the 50% inhibitory concentration (IC50) is 8.71 nM.

On to `OC1CNCCC12CCN(c1nc(Oc3cccc(F)c3)cc(C(F)(F)F)n1)C2` (centres unmarked) [Example 96, 2-[4-(3-fluorophenoxy)-6-(trifluoromethyl)pyrimidin-2-yl]-2,8-diazaspiro[4.5]decan-6-ol], for which the “pIC50 DAT” value is listed as 7.95.

For `OC1CNCCC12CCN(c1nc(Oc3cccc(F)c3)cc(C(F)(F)F)n1)C2` (centres unmarked) [Example 97, 2-[4-(3-fluorophenoxy)-6-(trifluoromethyl)pyrimidin-2-yl]-2,8-diazaspiro[4.5]decan-6-ol], the “pIC50 DAT” value worked out at 8.41.
